# Measurements published in ChEMBL document CHEMBL2046268, “Withaferin A-related steroids from Withania aristata exhibit potent antiproliferative activity by inducing apoptosis in human tumor cells” (Eur J Med Chem, 2012).
# Molecular target: T1, Caspase-3 (Homo sapiens) (UniProt P42574)
# T1 sequence (whole entry): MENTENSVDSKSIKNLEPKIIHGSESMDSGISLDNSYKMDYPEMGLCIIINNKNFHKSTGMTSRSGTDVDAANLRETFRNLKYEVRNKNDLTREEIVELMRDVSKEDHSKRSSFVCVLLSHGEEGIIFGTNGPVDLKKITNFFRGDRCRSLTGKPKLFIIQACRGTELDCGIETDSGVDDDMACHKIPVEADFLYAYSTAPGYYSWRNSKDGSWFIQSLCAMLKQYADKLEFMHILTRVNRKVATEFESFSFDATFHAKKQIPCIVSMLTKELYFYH
# Experiment: Increase in caspase 3 activation in human HeLa cells using Ac-DEVD-pNA at 12 uM after 4 hrs by Bradford assay relative to control
# Assay type: cell-based
smiles,measurement,value
CC1=C(CO)C(=O)O[C@@H]([C@@H](C)[C@H]2CC[C@H]3[C@@H]4C[C@H]5O[C@]56[C@@H](O)C=CC(=O)[C@]6(C)[C@H]4CC[C@]23C)C1 [WITHAFERIN A],fold change (FC),1
